Data from patent US20150148256A1, “BIOLUMINESCENCE IMAGING-BASED SCREENING ASSAY AND INHIBITORS OF ABCG2” (THE JOHNS HOPKINS UNIVERSITY, priority 2008, published 2015).

Tested on: ABCG2-overexpressing NCI-H460/MX20 cells
Experiment: Mitoxantrone (MTX) resensitization assay (XTT)
Conditions: H460/MX20 cells with MTX

For `CC(=O)c1ccc2c(c1)N(CCCN1CCC(CCO)CC1)c1ccccc1S2` [piperacetazine], the “MTX (mitoxantrone resensitization assay)” value was “Y”.
